Values quoted from earlier work, collected in US20070129297A1, “Treatment and prevention of asthma” (priority 2003, published 2007).

Test system: red blood cells
Conditions: at a thousand times the concentrations at which other detergents are hemolytic

## polymer of 4-(1,1,3,3-tetramethylbutyl)phenol) with formaldehyde and oxirane [Tyloxapol]
  hemolysis of red blood cells: does not hemolyze red blood cells
